Results published in paper PMC3863386 (Journal of the American Chemical Society, 2013).

By UniProt entry, the sequences of proteins in these tests, tags left out. Where a name states a change or a piece, a line headed by the entry shows the natural chain unless it says otherwise.
UniProt P76141: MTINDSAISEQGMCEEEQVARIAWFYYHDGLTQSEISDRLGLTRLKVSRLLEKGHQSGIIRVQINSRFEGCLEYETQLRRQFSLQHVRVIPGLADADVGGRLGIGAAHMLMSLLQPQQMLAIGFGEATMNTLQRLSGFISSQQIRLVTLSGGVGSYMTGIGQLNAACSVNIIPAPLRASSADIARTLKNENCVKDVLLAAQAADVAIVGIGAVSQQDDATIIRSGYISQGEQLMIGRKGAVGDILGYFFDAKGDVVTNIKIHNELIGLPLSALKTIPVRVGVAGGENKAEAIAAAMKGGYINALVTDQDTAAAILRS

Molecular target: LsrR (Escherichia coli, UniProt P76141)

phospho-isobutyl DPD [D8P]
Kd (read-out: Kd of LsrR (ITC), ITC, 20°C, one-site binding model): 430 ± 150 nM | Kd (read-out: LsrR-binding affinity (Kd), approximate, rounded summary value): ~500 nM

Read-outs that look alike come from different tables or passages of the source.
